Tested on: Vero cells
Assay: Cytotoxicity test of drugs on Vero cells (MTT)
Details: 72 h

## NC(=O)c1ncn([C@@H]2O[C@H](CO)[C@@H](O)[C@H]2O)n1 [Ribavirin, reference compound]
  Maximum non-toxic concentration (TC0): 0.065 g/L
